This is a selection; strong and weak results do not stand in their true shares. Active and inactive are the calls of the source. Rule for the calls: active = max response of -50% or lower; inconclusive = between -30% and -50%; inactive = -30% or higher.
target: Phosphatidylinositol 5-phosphate 4-kinase type-2 alpha (Homo sapiens) (UniProt P48426); assay: qHTS for Inhibitors of phosphatidylinositol 5-phosphate 4-kinase (PI5P4K); details: PI5P4Kalpha enzyme, ADP-Glo luminescence, 60 min; active compounds read low; note: value at the top dose of about 77 µM
Excerpt: In addition to finding PI5P, we discovered the type II phosphatidylinositol 5-phosphate 4-kinase (PI5P4K) family (alpha, beta, gamma isoforms) that catalyze the conversion of PI5P to PI(4,5)P2. Alternatively, PI(4,5)P2 can also be synthesized through phosphatidylinositol-4-phosphate (PI4P) by the type I phosphatidylinositol 4-phosphate 5-kinases (PI4P5K). These PI5P4K enzymes therefore represent one way by which cells can regulate endogenous PI5P levels and play important roles in insulin signaling and in stress responses.
This proposal aims to identify and optimize specific modulators of human PI5P4K, phosphatidylinositol-5-phosphate 4-kinase (Type II PIPK), a family of kinases that regulate AKT signaling and tumor cell growth. In this project we aim to identify inhibitors of human PI5P4K using a quantitative high-throughput screening approach against the MLSMR containing ~400,000 small molecules.
NIH Chemical Genomics Center [NCGC]
NIH Molecular Libraries Probe Centers Network [MLPCN]
Assay Submitter (PI): Atsuo Sasaki, Beth Israel Deaconess Medical Center
2 microL of PI5P4Kalpha/substrate buffer (columns 1-2, 5-48) are dispensed into Greiner white solid bottom 1536-well assay plates; column 3 receives only PI5P4Kalpha buffer as 0x substrate controls; column 4 receives only substrate buffer as 0x PI5P4Kalpha controls. Final assay buffer consists of 0.038 M HEPES pH 7.4, 0.28 mM EGTA, 0.1% CHAPS, and 5% DMSO (final concentration). Compounds are then transferred via Kalypsys pin tool equipped with 1536-pin array (10 nL slotted pins, V&P Scientific, San Diego, CA). Following addition of compound, 1 microL of ATP (5 microM final concentration, all columns) is added to initiate the reaction. ATP is diluted in an assay buffer consisting of 0.02 M HEPES pH 7.4, 60 mM MgCl2, 15 microM ATP, and 0.1% CHAPS. The plates are then incubated at room temperature for 60 minutes. ADP-Glo reagent 1 is added (2 microL) and plates incubated for 45 minutes, before ADP-Glo reagent 2 (4 microL) is added and plates incubated for 30 minutes. They are then transferred to a ViewLux high-throughput CCD imager (PerkinElmer) wherein single end-point measurements of luminescence are acquired using a clear filter.
% is set by controls: 0 for no effect and ±100 for the full control effect.

Sequences of proteins named here, by UniProt entry; tags and fusion partners are left off. A change or cut given only in a name is not applied to a line headed by its entry.
UniProt P48426: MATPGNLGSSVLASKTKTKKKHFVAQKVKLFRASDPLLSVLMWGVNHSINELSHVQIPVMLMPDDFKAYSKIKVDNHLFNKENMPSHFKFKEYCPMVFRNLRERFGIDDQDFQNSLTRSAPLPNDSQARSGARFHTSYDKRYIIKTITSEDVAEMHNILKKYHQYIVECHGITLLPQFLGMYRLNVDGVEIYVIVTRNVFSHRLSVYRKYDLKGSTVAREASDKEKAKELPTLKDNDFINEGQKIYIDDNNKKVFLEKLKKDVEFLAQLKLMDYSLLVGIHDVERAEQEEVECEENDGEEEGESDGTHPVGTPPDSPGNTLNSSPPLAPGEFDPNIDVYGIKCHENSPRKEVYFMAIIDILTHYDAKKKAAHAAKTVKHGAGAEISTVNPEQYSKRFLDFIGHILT

Row | Compound | max response
1 | CC(=O)NC(SC(=S)N(CC(C)C)CC(C)C)C(Cl)(Cl)Cl (configuration not stated) | inactive: 3.48%
2 | Cc1ccc(OP(=O)(Nc2ccccn2)Oc2ccc(C)cc2)cc1 | inactive: 13.9%
3 | O=P1(N(CCCl)CCCl)OCCC2CCCCN21 (configuration not stated) | inactive: 2.41%
4 | c1ccc(-c2nn[nH]n2)c(-c2nn[nH]n2)c1 | inactive: 4.35%
5 | Cc1ccc(NP(=O)(Oc2cccc(C)c2)Oc2cccc(C)c2)nc1 | inactive: 4.8%
6 | O=C(NC1CCS(=O)(=O)C1)NP(=S)(Oc1ccccc1)Oc1ccccc1 (configuration not stated) | inactive: 13.9%
7 | CCNC(=S)/N=C(\N)N[N+](=O)[O-] | inactive: 0.979%
8 | Nc1ccc([As](=O)(O)c2ccc([N+](=O)[O-])cc2)cc1 | inactive: 1.91%
9 | C(Cc1nn[nH]n1)Cc1nn[nH]n1 | inactive: -15.6%
10 | O=[As](O)(c1ccccc1)c1ccc(O)cc1 | inactive: 7.91%
11 | CC(=O)NC(SC(=S)N(C)C)C(Cl)(Cl)Cl (configuration not stated) | inactive: -1.33%
12 | O=[N+]([O-])c1ncn(CCn2cnc([N+](=O)[O-])n2)n1 | inactive: 2.51%
13 | O=[N+]([O-])c1ccc(O)c(/C=N/Nc2ccc([N+](=O)[O-])cc2[N+](=O)[O-])c1 | inactive: -5.9%
14 | O=P(Nc1nc2ccccc2s1)(c1ccccc1)c1ccccc1 | inactive: 0.32%
15 | C[C@H]1OP(=O)(Oc2ccccc2)[C@H](O)[C@H](O)[C@H]1N=[N+]=[N-] (some centres not stated) | inactive: -0.338%
16 | CN(C)C1(CNC(=O)c2ccc(Cl)c(S(N)(=O)=O)c2)CCCCC1 | inactive: -4.4%
17 | O=P(Nc1ccccn1)(c1ccc(Br)cc1)c1ccc(Br)cc1 | inactive: -2.95%
18 | Nc1ccc(CCCCOc2ccccc2)cc1 | inactive: -7.01%
19 | COc1ccc(N)c([N+](=O)[O-])c1[N+](=O)[O-] | inactive: -22%
20 | c1nnnn1CCn1cnnn1 | inactive: 1.39%
21 | O=P(Nc1nccs1)(c1ccccc1)c1ccccc1 | inactive: 5.4%

Row | Compound | max response
22 | CC(C)C(=O)NC(Sc1ccccc1)C(Cl)(Cl)Cl (configuration not stated) | inactive: 1.32%
23 | CC1CCN(C(=O)Oc2c(Cl)cc(Cl)c3cccnc23)CC1 | inactive: 1.39%
24 | CC(C)=N/N=C(\N)N[N+](=O)[O-] | inactive: 4.5%
25 | CC(C)c1nc(Nc2ccccc2)n(P(=O)(N(C)C)N(C)C)n1 | inactive: 3.21%
26 | CN(C)C(=O)OCCc1n(C)cc[n+]1C | inactive: -4.47%
27 | CCN(/C(=N/P(=O)(N1CCOCC1)N1CCOCC1)N1CCOCC1)c1ccc(OC)cc1 | inactive: 0.256%
28 | Nc1ccc([As](=O)(O)c2ccc(N)cc2)cc1 | inactive: -0.672%
29 | C[N+]1=C2C=CC=CC=C2SC12C([N+](=O)[O-])=CC([N+](=O)[O-])=C[C-]2[N+](=O)[O-] (configuration not stated) | active: -73.7%
30 | Cc1ccc(NP(=O)(Oc2ccccc2)Oc2ccccc2)nc1 | inactive: 6.93%
31 | CCc1nc2c(n1)c1c(non1O)c1c2no[n+]1[O-] | inactive: 0.217%
32 | CC(=O)N1C2C3N(C(C)=O)C1C1N(C(C)=O)C(C(N1C(C)=O)N3C(C)=O)N2C(C)=O | inactive: 1.65%
33 | O=[N+]([O-])c1cccc2n[nH]nc12 | inactive: -7.62%
34 | COc1ccc(C2=NCC(CBr)S2)cc1 (configuration not stated) | inactive: 0.19%
35 | O=C(O)CNc1ccc([As](=O)(O)O)cc1 | inactive: 0.548%
36 | O=[N+]([O-])c1cccc(NC2=NCC(CBr)S2)c1 (configuration not stated) | inactive: -0.961%
37 | COC(=O)C1(C)COP(=O)(Nc2ccccc2)OC1 (configuration not stated) | inactive: 17.6%
38 | O=[N+]([O-])c1ncn(CCn2ncnc2[N+](=O)[O-])n1 | inactive: 6.88%
39 | CC(C)(C)C(=O)NC(Sc1ccncn1)C(Cl)(Cl)Cl (configuration not stated) | inactive: -19.8%
40 | O=C(Nc1cc([As](=O)(O)O)ccc1O)c1ccccc1 | inactive: -3.88%
41 | O=P1(N(CCCl)CCCl)OCCCS1 (configuration not stated) | inactive: 0.145%
42 | Nc1cccc2ccc([As](=O)(O)O)cc12 | inactive: 1.59%

Row | Compound | max response
43 | CCN(N=Nc1nonc1N)c1nonc1N | inactive: 2.22%
44 | CCOP(=O)(Nc1ccccc1)OCC | inactive: 6.99%
45 | Cc1cc(SC(NC(=O)c2ccc(F)cc2)C(Cl)(Cl)Cl)ncn1 (configuration not stated) | active: -72.9%
46 | CN(C(=O)Cc1ccc(Cl)c(Cl)c1)[C@H]1CCCC[C@@H]1N1CCCC1 | inactive: 0.189%
47 | Cc1ccc(NP(=O)(Oc2ccccc2F)Oc2ccccc2F)nc1 | inactive: 3.31%
48 | CN(C)P(=O)(N(C)C)n1c(Nc2ccccc2)nnc1-c1ccccc1 | inactive: -1.68%
49 | O=P(Nc1nc2ccc(Cl)cc2s1)(c1ccccc1)c1ccccc1 | inactive: 10.1%
50 | O=C(O)c1ccccc1[As](=O)(O)O | inactive: 4.79%
51 | CC(=O)Nc1ccc([As](=O)(O)O)cc1 | inactive: 2.84%
52 | CCCC1OP(N)(=O)OCC1CC (configuration not stated) | inactive: 0.16%
53 | O=[N+]([O-])C1C(O)C(O)C([N+](=O)[O-])C(O)C1O (configuration not stated) | inactive: -8.4%
54 | O=C(NC(Sc1ccncn1)C(Cl)(Cl)Cl)c1ccccc1 (configuration not stated) | active: -54.1%
55 | Nc1cc(N)c2nonc2c1[N+](=O)[O-] | inactive: -28.4%
56 | Clc1ccc(Cl)c(NC2=NCC(CBr)S2)c1 (configuration not stated) | inactive: -1.88%
57 | CN1CCCC(OC(=O)C(c2ccccc2)c2ccccc2)C1 (configuration not stated) | inactive: 2.2%
58 | COc1ccccc1OP(=O)(Nc1ccc(C)cn1)Oc1ccccc1OC | inactive: -7.3%
59 | Cc1ccc(OP(=O)(Nc2nccs2)Oc2ccc(C)cc2)cc1 | inactive: 4.22%
60 | CN(C(=O)Cc1ccc(Cl)c(Cl)c1)[C@H]1CCCC[C@H]1N1CCCC1 | inactive: 15.9%
61 | Cc1ccc(N/C(=N/P(=O)(N2CCOCC2)N2CCOCC2)N2CCOCC2)cc1 | inactive: 19%
62 | NC(=O)c1cc([N+](=O)[O-])cc([N+](=O)[O-])c1N | inactive: -3.13%
